The text below walks through data of patent publication US8604061B2, “2-aminooxazolines as TAAR1 ligands” (Hoffmann-La Roche Inc., priority 2007, dated 2013).

Sequences of proteins named here, by UniProt entry; tags and fusion partners are left off.
UniProt Q923Y8, whole entry: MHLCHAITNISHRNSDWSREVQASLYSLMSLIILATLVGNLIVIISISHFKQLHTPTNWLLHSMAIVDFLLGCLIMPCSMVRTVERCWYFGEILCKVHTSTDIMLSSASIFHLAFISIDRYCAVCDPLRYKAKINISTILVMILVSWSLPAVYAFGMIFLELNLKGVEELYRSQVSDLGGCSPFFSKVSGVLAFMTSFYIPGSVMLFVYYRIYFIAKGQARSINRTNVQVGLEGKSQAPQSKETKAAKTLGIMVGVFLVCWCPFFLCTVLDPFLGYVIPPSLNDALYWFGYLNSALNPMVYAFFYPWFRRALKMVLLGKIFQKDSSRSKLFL

This assay concerns the target TAAR1 (Mus musculus, UniProt Q923Y8). Kind of assay: TAAR1 radioligand binding, membranes of stably transfected HEK293 cells (mouse). The following applies: read-out: Ki (μM) mouse/rat, cell not marked 'rat', radioligand [3H]-rac-2-(1,2,3,4-tetrahydro-1-naphthyl)-2-imidazoline, 4° C.

Consider `CC1(c2cc(F)cc(F)c2F)COC(N)=N1` (racemic), for which the Ki stood at 0.0081 µM.
